This assay concerns Nitric oxide synthase, inducible (Homo sapiens). As to the kind of experiment: Inhibition of recombinant human iNOS expressed in baculovirus-infected Sf9 cells assessed as conversion of [3H]-larginine to [3H]-L-citrulline preincubated for 15 mins measured after 45 mins by liquid scintillation counting.

Each structure is given as a SMILES string.

The text below walks through data of ChEMBL document CHEMBL2203205 (Eur J Med Chem, 2012).

Take `Cl.Cl.N=C(Nc1ccc2c(c1)CCN2CCNCCO)c1cccs1`: the IC50 entry is recorded as “Not Active”.
